We go through 4 molecules from US12577217B2, “15-PGDH inhibitor” (KYORIN Pharmaceutical Co., Ltd., priority 2019, dated 2026).

The chains behind the UniProt entries cited, without tags or fusion partners.
UniProt P15428, whole entry: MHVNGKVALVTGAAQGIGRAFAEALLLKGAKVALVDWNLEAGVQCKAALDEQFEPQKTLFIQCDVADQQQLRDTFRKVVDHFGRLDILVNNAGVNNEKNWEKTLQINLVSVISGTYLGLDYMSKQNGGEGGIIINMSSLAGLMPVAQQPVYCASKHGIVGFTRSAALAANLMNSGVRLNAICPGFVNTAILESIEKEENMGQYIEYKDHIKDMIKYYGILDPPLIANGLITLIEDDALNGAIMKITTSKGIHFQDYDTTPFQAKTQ

The IC50 is the concentration that inhibits the measured activity by half.

For this test, the target named is recombinant human 15-PGDH (Homo sapiens, UniProt P15428). Briefly: 15-PGDH enzyme inhibition test. Conditions: read-out: IC50 Value; 4 nM recombinant human 15-PGDH, 30 μM PGE2, 1 mM NAD+, 60 minutes after starting the reaction. The procedure: 15-PGDH Enzyme Inhibition Test
A test compound and 4 nM recombinant human 15-PGDH (R&D Systems) were added, in 50 mM Tris-HCl (pH 8.0) containing 0.01% TWEEN 20 (Sigma) and 0.01% bovine gamma globulin (Sigma), to a 384-well Flat Bottom Black plate (Corning, 3820), and the resultant was allowed to stand still at room temperature for 12 minutes, and 30 μM PGE2 (Cayman Chemical) and 1 mM NAD+ (Sigma) were added thereto to start the reaction. 60 minutes after starting the reaction, measurement was performed using Synergy 2 (BioTeck) at an excitation wavelength of 340 nm and a fluorescence wavelength of 440 nm. Assuming that a fluorescence signal obtained with an assay buffer added instead of the test compound and NAD+ was 100% and that a signal obtained with NAD+ added was 0%, a concentration corresponding to 50% inhibition plotted on a concentration-reaction curve of the test compound was defined as an IC50 value. Incidentally, in the following tables, an IC50 value smaller than 10 nM was shown as +++, an IC50 value equal to or larger than 10 nM and smaller than 100 nM was shown as ++, and an IC50 value equal to or larger than 100 nM was shown as +.
`CN1Cc2cc(N3CCOc4cc(C(O)C5CCCCC5)cnc43)ccc2C1=O` (stereo not shown): the IC50 was less than 10 nM.
Consider `CCCCN(C)C(=O)c1cnc2c(c1)OCCN2c1ccn2c(=O)n(C)nc2c1`, for which the IC50 is less than 10 nM.
On to `CN1Cc2cc(N3CCOc4cc(C(O)C5CCC(F)(F)CC5)cnc43)ccc2C1=O` (stereo not shown), for which the IC50 was less than 10 nM.
As to `CC(C)(O)c1ccc(N2CCOc3cc(C(=O)N4CCCCC4)ccc32)cc1` [Example 10-1, (4-(4-(2-Hydroxypropan-2-yl)phenyl)-3,4-dihydro-2H-benzo[b][1,4]oxazin-7-yl)(piperidin-1-yl)methanone], the IC50 lay within 10 to 100 nM.
